# Test results as given in patent US6576648B2, “Compound with growth hormone releasing properties” (Novo Nordisk A/S, priority 1999, dated 2003).
# Experiments:
# [1] = system: Carboxypeptidase mix: carboxypeptidase Y and B; assay: Metabolic stability in carboxypeptidase mix (ESMS, SIM of molecular ion); conditions: carboxypeptidase Y and B 0.025 mg/ml, 50 mM ammoniumacetate pH 4.5, 37° C., 24 h, decrease in SIM signal
# [2] = system: Pancreatic enzyme mix: trypsin, chymotrypsin and elastase; assay: Metabolic stability in pancreatic enzyme mix (ESMS, SIM of molecular ion); conditions: chymotrypsin and elastase 0.025 mg/ml, 100 mM ammoniumbicarbonate pH 8.0, 37° C., 24 h, decrease in SIM signal
structure (smiles),measurement,setting,value
CSCC[C@H](NC(=O)[C@H](CC(C)C)NC(=O)[C@H](Cc1c[nH]c2ccccc12)NC(=O)[C@H](CCC(N)=O)NC(=O)[C@@H](NC(=O)[C@H](Cc1ccccc1)NC(=O)[C@H](CC(=O)O)NC(=O)[C@H](CCC(N)=O)NC(=O)[C@H](C)NC(=O)[C@H](CCCN=C(N)N)NC(=O)[C@H](CCCN=C(N)N)NC(=O)[C@H](CO)NC(=O)[C@H](CC(=O)O)NC(=O)[C@H](CC(C)C)NC(=O)[C@H](Cc1ccc(O)cc1)NC(=O)[C@H](CCCCN)NC(=O)[C@H](CO)NC(=O)[C@H](Cc1ccc(O)cc1)NC(=O)[C@H](CC(=O)O)NC(=O)[C@H](CO)NC(=O)[C@@H](NC(=O)[C@H](Cc1ccccc1)NC(=O)[C@@H](NC(=O)CNC(=O)[C@H](CCC(N)=O)NC(=O)[C@H](CO)NC(=O)[C@@H](N)Cc1c[nH]cn1)[C@@H](C)O)[C@@H](C)O)C(C)C)C(=O)N[C@@H](CC(N)=O)C(=O)N[C@H](C(=O)O)[C@@H](C)O [Glucagon],Stability in Carboxypeptidase mix,[1],− (Unstable (more than 20% decrease in SIM signal after 24 h in degradation solution))
same,Stability in Pan. Enzyme mix,[2],− (Unstable (more than 20% decrease in SIM signal after 24 h in degradation solution))
